{"sequences": {"note": "Protein sequences, listed by entry. Tags and fused reporters are not part of them.", "UniProt P31652, whole entry": "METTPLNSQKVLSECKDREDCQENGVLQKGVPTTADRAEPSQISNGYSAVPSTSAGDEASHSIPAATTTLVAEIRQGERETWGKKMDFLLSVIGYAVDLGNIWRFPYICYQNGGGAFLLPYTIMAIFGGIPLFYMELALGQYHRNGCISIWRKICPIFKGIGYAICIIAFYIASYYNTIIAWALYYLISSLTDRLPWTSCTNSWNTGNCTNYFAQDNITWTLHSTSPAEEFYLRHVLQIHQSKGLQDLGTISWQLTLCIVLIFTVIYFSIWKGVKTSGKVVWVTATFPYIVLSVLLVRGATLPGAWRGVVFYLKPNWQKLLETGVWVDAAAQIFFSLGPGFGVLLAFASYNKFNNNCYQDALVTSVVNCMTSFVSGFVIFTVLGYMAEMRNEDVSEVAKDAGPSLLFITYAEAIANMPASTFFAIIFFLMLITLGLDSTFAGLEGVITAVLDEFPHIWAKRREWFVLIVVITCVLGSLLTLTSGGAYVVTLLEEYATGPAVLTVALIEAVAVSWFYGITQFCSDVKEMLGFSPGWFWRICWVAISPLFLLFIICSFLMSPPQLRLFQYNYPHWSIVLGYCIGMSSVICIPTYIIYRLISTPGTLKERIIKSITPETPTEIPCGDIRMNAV"}, "source": "ChEMBL document CHEMBL1139156", "about": "“Novel naphthyridines are histamine H3 antagonists and serotonin reuptake transporter inhibitors” (Bioorg Med Chem Lett, 2007)", "target": "Sodium-dependent serotonin transporter (Rattus norvegicus, UniProt P31652)", "assay": "Binding affinity to rat SERT"}
{"smiles": "c1ccc(C2CNCc3cc(OCCCN4CCOCC4)ncc32)cc1", "note": "(stereo unspecified)", "values": [{"measurement": "Ki", "value": 2, "unit": "µM"}]}
